# Laboratory results: patent US20080146524A1, “Selective inhibitors of neurotensin degrading enzymes” (Solvay Pharmaceuticals B.V., priority 2006, published 2008)
# Sequences of proteins named here, by UniProt entry; tags and fusion partners are left off.
# UniProt P42676, whole entry: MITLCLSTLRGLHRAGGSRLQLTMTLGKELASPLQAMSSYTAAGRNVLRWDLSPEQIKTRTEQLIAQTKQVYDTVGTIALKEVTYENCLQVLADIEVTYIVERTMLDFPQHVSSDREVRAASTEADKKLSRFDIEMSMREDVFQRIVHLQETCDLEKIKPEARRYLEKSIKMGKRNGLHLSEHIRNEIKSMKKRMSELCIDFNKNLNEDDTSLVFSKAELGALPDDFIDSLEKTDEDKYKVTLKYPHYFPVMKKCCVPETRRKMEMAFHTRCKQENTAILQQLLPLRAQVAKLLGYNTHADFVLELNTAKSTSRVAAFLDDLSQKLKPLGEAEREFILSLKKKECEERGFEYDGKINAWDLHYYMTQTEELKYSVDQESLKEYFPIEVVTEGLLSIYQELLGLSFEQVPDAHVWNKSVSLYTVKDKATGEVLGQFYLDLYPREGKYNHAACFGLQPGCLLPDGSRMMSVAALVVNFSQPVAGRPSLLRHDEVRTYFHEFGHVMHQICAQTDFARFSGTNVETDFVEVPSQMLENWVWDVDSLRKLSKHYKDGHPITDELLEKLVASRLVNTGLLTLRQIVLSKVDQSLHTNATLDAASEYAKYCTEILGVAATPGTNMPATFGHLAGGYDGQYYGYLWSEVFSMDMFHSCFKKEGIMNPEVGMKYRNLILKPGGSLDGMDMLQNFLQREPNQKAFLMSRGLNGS
# UniProt P24155, whole entry: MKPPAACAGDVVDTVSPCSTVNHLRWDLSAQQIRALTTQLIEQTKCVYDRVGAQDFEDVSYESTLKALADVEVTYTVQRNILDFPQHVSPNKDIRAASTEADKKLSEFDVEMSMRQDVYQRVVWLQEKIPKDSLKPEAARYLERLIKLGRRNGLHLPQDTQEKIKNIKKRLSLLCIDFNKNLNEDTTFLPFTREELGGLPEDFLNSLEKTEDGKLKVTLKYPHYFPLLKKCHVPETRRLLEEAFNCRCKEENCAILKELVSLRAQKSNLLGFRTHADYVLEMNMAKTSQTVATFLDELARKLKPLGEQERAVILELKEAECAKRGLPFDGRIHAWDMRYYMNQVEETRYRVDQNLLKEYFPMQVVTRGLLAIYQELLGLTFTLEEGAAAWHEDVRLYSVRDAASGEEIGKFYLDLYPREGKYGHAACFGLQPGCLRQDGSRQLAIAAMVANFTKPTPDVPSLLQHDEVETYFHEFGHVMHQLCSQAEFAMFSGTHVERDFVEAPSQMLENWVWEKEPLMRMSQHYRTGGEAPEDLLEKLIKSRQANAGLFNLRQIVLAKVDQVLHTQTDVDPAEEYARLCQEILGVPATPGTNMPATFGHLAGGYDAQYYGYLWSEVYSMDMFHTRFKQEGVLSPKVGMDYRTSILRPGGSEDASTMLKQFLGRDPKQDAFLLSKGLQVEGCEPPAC
# Tests used:
# Neurolysine EC 3.4.24.16 = Neurolysine EC 3.4.24.16 (UniProt P42676)
# [1] = biological target: Thimet oligopeptidase EC 3.4.24.15 (UniProt P24155); experiment: enzyme inhibition of Thimet oligopeptidase EC 3.4.24.15 (published methods, Dauch 1991a,b); type: biochemical
smiles,measurement,setting,value
CCC[C@H](NC(=O)[C@@H]1CSCN1C(=O)CCP(=O)(O)CCc1cccc2ccccc12)C(=O)O,enzyme inhibition EC 3.4.24.16 pIC50,Neurolysine EC 3.4.24.16,7.2
same,enzyme inhibition EC 3.4.24.15 pIC50,[1],6.9
CCC[C@H](NC(=O)[C@@H]1CSCN1C(=O)CCP(=O)(O)CCCc1ccccc1)C(=O)O,enzyme inhibition EC 3.4.24.16 pIC50,Neurolysine EC 3.4.24.16,5.7
same,enzyme inhibition EC 3.4.24.15 pIC50,[1],5.1
CCCC[C@H](NC(=O)[C@@H]1CCCN1C(=O)CCP(=O)(O)CCCCc1ccccc1)C(=O)O,enzyme inhibition EC 3.4.24.16 pIC50,Neurolysine EC 3.4.24.16,8.2
same,enzyme inhibition EC 3.4.24.15 pIC50,[1],7.6
CCCC[C@H](NC(=O)[C@@H]1CCCN1C(=O)CCP(=O)(O)CCc1cccc2ccccc12)C(=O)O,enzyme inhibition EC 3.4.24.16 pIC50,Neurolysine EC 3.4.24.16,7.4
same,enzyme inhibition EC 3.4.24.15 pIC50,[1],7.2
CCC[C@H](NC(=O)[C@@H]1CSCN1C(=O)CCP(=O)(O)CCCCc1ccccc1)C(=O)O,enzyme inhibition EC 3.4.24.16 pIC50,Neurolysine EC 3.4.24.16,7.8
same,enzyme inhibition EC 3.4.24.15 pIC50,[1],6.8
CCCC[C@H](NC(=O)[C@@H]1CCCN1C(=O)CCP(=O)(O)CCCc1ccccc1)C(=O)O,enzyme inhibition EC 3.4.24.16 pIC50,Neurolysine EC 3.4.24.16,6.3
same,enzyme inhibition EC 3.4.24.15 pIC50,[1],6.3
